pIC50: −log10 of the molar value.
Key:
D(2) dopamine receptor = D(2) dopamine receptor (Rattus norvegicus, UniProt P61169); assay: Inhibitory activity against Dopamine receptor D2 in rats using [3H]spiperone as radioligand
Summary of the method: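 Rat striatal membranes in 50 mM potassium phosphate buffer pH 7.4 were incubated with 0.5 nM [3H]spiperone for 10 min at 37 °C. Specific binding was defined with 10 μM 6,7-ADTN.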

Protein sequences, listed by entry. Tags and fused reporters are not part of them.
UniProt P61169, whole entry: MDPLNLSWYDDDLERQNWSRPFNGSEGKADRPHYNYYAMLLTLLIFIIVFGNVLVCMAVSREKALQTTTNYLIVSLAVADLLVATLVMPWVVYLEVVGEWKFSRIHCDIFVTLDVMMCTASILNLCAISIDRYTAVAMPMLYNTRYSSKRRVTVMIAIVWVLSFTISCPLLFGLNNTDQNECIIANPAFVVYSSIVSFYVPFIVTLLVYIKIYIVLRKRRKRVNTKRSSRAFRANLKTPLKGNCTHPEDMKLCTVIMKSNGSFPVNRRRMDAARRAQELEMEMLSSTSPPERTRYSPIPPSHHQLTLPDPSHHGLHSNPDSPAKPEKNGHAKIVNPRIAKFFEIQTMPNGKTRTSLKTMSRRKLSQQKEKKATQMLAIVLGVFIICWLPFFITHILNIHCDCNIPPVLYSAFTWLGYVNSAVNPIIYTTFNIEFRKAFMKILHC
UniProt P19327, whole entry: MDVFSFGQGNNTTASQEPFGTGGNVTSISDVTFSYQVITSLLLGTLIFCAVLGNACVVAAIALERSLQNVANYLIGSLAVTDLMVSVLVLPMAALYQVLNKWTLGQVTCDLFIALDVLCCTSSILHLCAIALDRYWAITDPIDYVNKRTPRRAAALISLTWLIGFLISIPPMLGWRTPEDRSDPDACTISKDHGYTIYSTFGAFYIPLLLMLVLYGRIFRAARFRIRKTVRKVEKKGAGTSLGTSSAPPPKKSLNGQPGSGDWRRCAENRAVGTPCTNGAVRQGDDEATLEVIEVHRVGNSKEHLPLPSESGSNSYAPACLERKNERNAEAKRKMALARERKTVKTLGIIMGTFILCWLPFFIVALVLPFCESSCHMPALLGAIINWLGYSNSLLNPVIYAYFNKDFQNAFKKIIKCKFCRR

[1] = molecular target: 5-hydroxytryptamine receptor 1A (Rattus norvegicus, UniProt P19327); assay: Inhibitory activity against 5-hydroxytryptamine 1A receptor in rats, using [3H]8-OH-DPAT as radioligand
Summary of the method: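 Rat whole-brain membranes (minus brainstem and cerebellum) in 50 mM Tris pH 8.0 with 120 mM NaCl, 4 mM CaCl2, 4 mM MgCl2 and 10 μM pargyline. Rapid filtration, then scintillation counting. Nonspecific binding defined with 10 μM 5-HT. IC50 by semi-log plot and linear regression.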

`CN1CCc2cccc(O)c2CC1` was tested, and the pIC50 (D(2) dopamine receptor) was 4.82 and the pIC50 [1] was 5.82.

— ChEMBL document CHEMBL1125331, “6-Hydroxy-3-n-propyl-2,3,4,5-tetrahydro-1H-3-benzazepine and analogs: new centrally acting 5-HT1A receptor agonists” (J Med Chem, 1992)
